# Compound activity as filed in PubChem BioAssay.
# Nrf2 inh = Nrf2 pathway inhibition. A549 ARE-Fluc reporter, luciferase luminescence, 18-24 h. Potency, µM (highest dose often 46 µM), for inactives: at the highest dose activity change, negative = inhibition, usual class: inhibitors. 2.1% of 360,000 active. AID 504444; also: potency is read from the fitted curve at half-maximal effect; % is scaled to controls: 0 for no effect and ±100 for the full control effect; nearly all actives have a fitted effect of over 60% in size
#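 A549 ARE_Fluc cells, 5000/well, 5% FBS OPTI-MEM; compounds in dose-response, 18-24 h at 37 °C/5% CO2; CellTiter-Fluor viability read (Ex 405/Em 525), then BugLite luciferase luminescence = Nrf2 activity.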
# miR-21 FLuc = raises the signal of a miR-21 reporter; HeLa miR-21 FLuc reporter, luciferase, 48 h; Potency, µM (highest dose often 38.3 µM), for inactives: at the highest dose reporter change, positive = more light; 340,000 tested, under 10 active; active = well fitted rising curve with a large enough effect; inconclusive = small, poorly fitted or top-dose-only effect; inactive = no such curve, though single readings can be large or run the other way;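 also: % of control where 0% means no effect; miR-21 action dims this reporter so a rising signal means less miR-21 action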
#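 Luminescence from a firefly luciferase reporter carrying a miR-21 binding site downstream, stably expressed under a CMV promoter in HeLa cells that make miR-21 endogenously, reports miRNA modulation after 48 h compound exposure up to approximately 40uM final.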
# ClpP mod = qHTS Assay for Activators of ClpP; purified B. subtilis ClpP, FRET peptide cleavage, 20 min; Potency, µM (titrated, usually from 57.5 µM), for inactives: at the highest dose activity change, negative = active; 1.9% of 340,000 active; AID 651965, 2013; active = well fitted falling curve with a large enough effect; inconclusive = small, poorly fitted or top-dose-only effect; inactive = no such curve, though single readings can be large or run the other way; also: potency is read from the fitted curve at half-maximal effect; the source files actives as falling curves though it sought activators and does not explain the sign; nearly all actives have a fitted effect of over 65% in size
#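 Purified B. subtilis ClpP, 10 microg/mL final in Tris/HCl pH8 with KCl, BSA, glycerol and Tween-20, cleaved an Abz/nitrotyrosine-quenched decapeptide. Fluorescence (ex 320, em 430) was read at 0 and 20 min at room temperature. Delta was normalized to 5.8 microM ADEP and DMSO/no-enzyme controls.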
# Nrf2 ARE act = activates Nrf2 signaling; AID 624171; 0.31% of 410,000 active; Potency, µM (series often up to 46.1 µM), for inactives: at the highest dose activation, hits mostly activators; AREc32 ARE-luciferase reporter (MCF7-derived line), luminescence, 24 h; also: potency is read from the fitted curve at half-maximal effect; % of control where 0% means no effect; nearly all actives have a fitted effect of over 65% in size
#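 Reporter line AREc32 (ARE-Fluc), seeded overnight in OPTI-MEM with 5% FBS; compound pin-transferred, 24 hr at 37 deg C, 5% CO2; luminescent read-out.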
# p53 reactivator = re-activators of mutant p53 | H1299 p53-A138V BP100-luciferase reporter, luminescence, 24 h | 0.063% of 320,000 active | Potency, µM (series often up to 92.2 µM), for inactives: top-dose activity change, positive = activation, actives largely listed as activators; also: potency is read from the fitted curve at half-maximal effect; % of control where 0% means no effect; nearly all actives have a fitted effect of over 45% in size
#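 H1299 (p53-null), stable ts p53-A138V + BP100-Luc; 1000 cells/well, Opti-MEM/10% FBS; cpd 4 pt, 1:5; 24 h, 37 deg C, 5% CO2; detection reagent 10 min RT; luminescence.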
# A549 tox = kills or reduces viability of A549 cells in Nrf2 counter-screen; A549 ARE-Fluc cells, CellTiter-Fluor viability, 18-24 h; Potency, µM (top dose mostly 46 µM), without a hit: at the highest dose activity change, negative = cytotoxicity, actives largely listed as inhibitors; 0.16% of 390,000 active; also: potency is read from the fitted curve at half-maximal effect; % is scaled to controls: 0 for no effect and ±100 for the full control effect
#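 A549 ARE_Fluc cells in 5% FBS OPTI-MEM were exposed to compounds in concentration-response for 18-24 h at 37 deg C. Viability was read by CellTiter-Fluor fluorescence (Ex 405/Em 525) after 30 min, before the luciferase read.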
# Starred values were filed as active, the others as inactive; ? = inconclusive; . = no result given. The list is not random: actives were taken first. Their share in the collection is about 3.7%. Unless noted, calls follow the shape of the dose curve; as a rule, active = well fitted curve in the direction sought with a large enough effect; inconclusive = small, poorly fitted or top-dose-only effect, or another doubt; inactive = no such curve, though single readings can be large; an effect the other way counts as inactive or inconclusive.
SMILES | Nrf2 inh | miR-21 FLuc | ClpP mod | Nrf2 ARE act | p53 reactivator | A549 tox
Cc1ccc(C)c(-c2nc(Cn3c(=O)cc(-c4ccccc4)c4c(C)nn(C)c43)c(C)o2)c1 | ? | -2% | -10% | -1% | . | 1%
Cc1ccnc(NC(=O)CS(=O)(=O)Cc2ccccc2)c1 | -5% | -8% | -12% | 0% | 1% | -7%
Cc1ccnc(NS(=O)(=O)Cc2ccccc2)c1 | 15% | -8% | 40µM* | 0% | 5% | 1%
COc1ccc(C(=O)NC(=O)Nc2cc(C)ccn2)cc1 | 7.3µM* | -9% | -1% | -1% | ? | 17%
COc1ccc(NC(=O)Nc2cc(C)ccn2)cc1 | ? | . | -1% | -1% | . | 1%
COc1ccc(S(=O)(=O)Nc2cc(C)ccn2)cc1 | 20% | -4% | 14µM* | 0% | -6% | -16%
CC(=O)c1c(C)[nH]c(C(=O)C(C)Sc2nnc(NC3CC3)s2)c1C (stereo not given) | 16µM* | . | -1% | 3% | -14% | -9%
CC(Sc1nnc(NC2CC2)s1)C(=O)Nc1ccc(N2CCOCC2)cc1 (stereo not given) | 3% | . | 1% | -1% | -5% | -3%
Cc1ccc(C)c(N2CCN(C(=O)c3ccc(Cn4c(=O)[nH]c5ccccc5c4=O)cc3)CC2)c1 | 7.3µM* | ? | -17% | -1% | -5% | -22%
O=c1[nH]c2ccccc2c(=O)n1Cc1ccccc1 | 26% | 0% | 35µM* | 0% | -5% | -4%

# Record cards, from the list above. Screens in order: Nrf2 inh	miR-21 FLuc	ClpP mod	Nrf2 ARE act	p53 reactivator	A549 tox
# Cc1ccnc(NC(=O)CS(=O)(=O)Cc2ccccc2)c1 as listed: -5%	-8%	-12%	0%	1%	-7%
# CC(=O)c1c(C)[nH]c(C(=O)C(C)Sc2nnc(NC3CC3)s2)c1C (stereo not given) as listed: 16µM*	.	-1%	3%	-14%	-9%
# O=c1[nH]c2ccccc2c(=O)n1Cc1ccccc1 as listed: 26%	0%	35µM*	0%	-5%	-4%

# Carrying on:
SMILES | Nrf2 inh | miR-21 FLuc | ClpP mod | Nrf2 ARE act | p53 reactivator | A549 tox
CC(=O)c1ccc(N2CCN(C(=O)c3ccc(Cn4c(=O)[nH]c5ccccc5c4=O)cc3)CC2)cc1 | . | ? | ? | -1% | . | -9%
CCn1c(=O)[nH]c2ccccc2c1=O | -19% | 0% | -12% | 0% | -2% | 2%
COC(=O)CCn1[nH]c(=O)c2ccccc2c1=O | -13% | 6% | -1% | 0% | 7% | 9%
O=c1[nH]n(Cc2ccccc2)c(=O)c2ccccc12 | . | -61% | -10% | 5µM* | 4% | -3%
Cc1sc2nc(C3CC3)nc(SCC(=O)N3CC(=O)Nc4ccccc43)c2c1C | 7.3µM* | -3% | -1% | 1% | -3% | -20%
CCOC(=O)c1ccc(NC(=O)c2c(C)nn(-c3ccc(F)cc3)c2-n2cccc2)cc1 | 41% | 1% | 3% | -2% | . | -11%
COC(=O)CN1C(=O)CSc2ccc(S(=O)(=O)Nc3ccc(F)c(Cl)c3)cc21 | -2% | -2% | 2% | 0% | . | -13%
COc1cc(Cl)c(C)cc1NC(=O)CCc1c(C)nc2c3cccnc3nn2c1C | 11% | 4% | 25µM* | 0% | . | -7%
Cc1cc(=O)oc2cc(OCC3CC(c4ccc(Cl)cc4)=NO3)ccc12 (stereo not given) | ? | -9% | 28µM* | 0% | 3% | -21%
CC1CCN(C(=O)CSc2nc3c(c(=O)n2C)SCC3)CC1 | 9% | -7% | 28µM* | 5% | 18% | -9%
CNC(=O)[C@H]1O[C@@H](n2cnc3c(NCc4cccc(I)c4)nc(Cl)nc32)[C@H](O)[C@@H]1O | 18µM* | . | 1% | 0% | -9% | -28%
Cc1cccc(N2CC(c3nc4ccc(C)cc4[nH]3)CC2=O)c1 (stereo not given) | 5% | -31% | -4% | 4% | . | 0%
COc1cccc(C2=Nn3c(nnc3-c3ccccc3O)SC2)c1 | -23% | -6% | -1% | 2% | 16% | -12%
C[n+]1c2n(c3ccccc31)N=C(c1cc(C(C)(C)C)c(O)c(C(C)(C)C)c1)CS2 | 18µM* | ? | . | -2% | -9% | ?
CCc1ccc(-c2csc(NC(=O)Oc3ccccc3)n2)cc1 | ? | -67% | 1% | 2% | 14µM* | 3%
CC(=O)Nc1ccc(-c2csc(NC(=O)Cc3ccccc3F)n2)cc1 | ? | -3% | . | 7% | 12% | -14%
O=C(Nc1nc(-c2cccc(Br)c2)cs1)Oc1ccccc1 | 13% | -32% | -3% | 3% | ? | 6%
CC(=O)Nc1ccc(-c2csc(NC(=O)Cc3cccc(F)c3)n2)cc1 | 21µM* | 17% | . | 5% | 11% | 3%
CS(=O)(=O)N1CCc2cc(-c3csc(NC(=O)Cc4ccccc4)n3)ccc21 | 21µM* | ? | 0% | 3% | 8% | -19%
COC(=O)c1cc2c(cc1NC(=O)c1c(C)nn(-c3ccc(C)cc3)c1-n1cccc1)OCO2 | 5% | 1% | -6% | -1% | . | 1%

# Ordered by the number under miR-21 FLuc (high to low): 3 from the list above.
structure | miR-21 FLuc
CC(=O)Nc1ccc(-c2csc(NC(=O)Cc3cccc(F)c3)n2)cc1 | 17%
CC(=O)Nc1ccc(-c2csc(NC(=O)Cc3ccccc3F)n2)cc1 | -3%
O=C(Nc1nc(-c2cccc(Br)c2)cs1)Oc1ccccc1 | -32%

# Carrying on.
SMILES | Nrf2 inh | miR-21 FLuc | ClpP mod | Nrf2 ARE act | p53 reactivator | A549 tox
CCOC(=O)c1ccc(N2C(=O)c3[nH]nc(-c4ccccc4)c3C2c2cccs2)cc1 (stereo not given) | ? | -2% | -15% | -3% | . | ?
CCOC(=O)c1ccc(N2C(=O)c3[nH]nc(-c4ccc(OCC)cc4)c3C2c2ccc(OC)cc2OC)cc1 (stereo not given) | -8% | -1% | ? | 0% | . | 16%
CCOc1ccc(N2C(=O)c3[nH]nc(-c4ccc(OC)cc4)c3C2c2cccs2)cc1 (stereo not given) | 23µM* | ? | -10% | -1% | . | ?
CCOC(=O)c1ccc(N2C(=O)c3[nH]nc(-c4ccc(OCC)cc4)c3C2c2cccs2)cc1 (stereo not given) | 18µM* | 28% | -19% | 5% | . | -21%
CCOc1ccc(-c2n[nH]c3c2C(c2cccs2)N(c2ccc(Br)cc2)C3=O)cc1 (stereo not given) | 23µM* | ? | -5% | 0% | . | -24%
CCOC(=O)c1ccc(N2C(=O)c3n[nH]c(C)c3C2c2ccc(OCC)cc2)cc1 (stereo not given) | ? | ? | 2% | -4% | . | -15%
Cc1ccc(C(=O)N2CCc3cc(CNC(=O)CSc4ccccc4)ccc32)cc1 | . | 16% | -4% | 0% | . | -28%
CN(C)S(=O)(=O)c1cccc(-c2nn(-c3ccccc3)cc2/C=C2\SC(=S)NC2=O)c1 | 16µM* | -26% | 2% | 4% | 14% | ?
CN(C)S(=O)(=O)c1cccc(-c2nn(-c3ccccc3)cc2/C=C(\C#N)c2nc3ccccc3[nH]2)c1 | ? | -5% | -5% | 0% | -6% | -11%
CCc1nnc2c(NCc3ccc(F)cc3)nc3ccccc3n12 | 17% | 0% | -8% | 0% | . | 15%
Cc1cc2nc3c(=O)n(C)c(=O)n(C)c3nc2cc1N=CN(C)C | 20% | 0% | -1% | -1% | . | 3%
